Assay results taken from publication PMC3618674 (Brain research, 2012).

System: L-DOPA methylation
Experiment: Animal experiment III: L-DOPA methylation in dopamine-depleted
Assay type: in vivo, rat
Details: reserpinized rats; 2 h after oral L-DOPA/carbidopa 20/20 mg/kg

plasma 3-OMD level: 16.4 ± 1.9 µM
Substance: L-DOPA/carbidopa
